Earlier results, collected in patent publication US20030013883A1, “Tropane analogs binding to monoamine transporters” (priority 2000, published 2003).
pKd: −log10 of the molar value.

By UniProt entry, the sequences of proteins in these tests, tags left out. Residues count along the entry.
UniProt Q63380, 1-617: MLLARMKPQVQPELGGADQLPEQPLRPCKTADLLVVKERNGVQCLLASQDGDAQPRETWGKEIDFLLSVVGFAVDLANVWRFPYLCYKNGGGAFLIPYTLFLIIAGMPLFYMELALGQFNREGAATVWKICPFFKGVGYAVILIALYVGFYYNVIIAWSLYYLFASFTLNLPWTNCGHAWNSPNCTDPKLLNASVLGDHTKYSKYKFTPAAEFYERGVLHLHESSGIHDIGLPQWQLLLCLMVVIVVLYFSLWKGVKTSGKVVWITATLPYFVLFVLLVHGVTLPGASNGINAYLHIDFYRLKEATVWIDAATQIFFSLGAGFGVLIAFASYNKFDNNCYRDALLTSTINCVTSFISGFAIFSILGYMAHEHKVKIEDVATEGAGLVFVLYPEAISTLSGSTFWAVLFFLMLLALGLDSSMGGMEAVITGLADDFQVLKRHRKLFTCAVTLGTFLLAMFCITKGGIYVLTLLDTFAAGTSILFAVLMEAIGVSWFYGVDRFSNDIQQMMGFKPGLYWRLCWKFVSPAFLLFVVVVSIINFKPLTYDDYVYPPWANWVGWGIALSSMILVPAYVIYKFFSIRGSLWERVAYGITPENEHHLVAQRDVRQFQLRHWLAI

Target: T1, norepinephrine transporter (NET) (Rattus norvegicus, UniProt Q63380)
T1 construct: For NET assay, the thawed homogenate was suspended in NET assay buffer; from tissue; host or cells: rat cerebral cortex
Conditions: radioligand constant used in Cheng-Prusoff conversion; cited from earlier work

## [^3H]nisoxetine
  pKd: 9.10
